## Antibody variant affinities, Ab-14 heavy chain, assay B

Binding partner: SARS-CoV-2 spike HR2 peptide, sequence PDVDLGDISGINAS.

Parent: Ab-14, a human scFv built as VH, a 15-residue (Gly4Ser)3 linker, VL. Only the CDRs of the heavy chain vary.
VH: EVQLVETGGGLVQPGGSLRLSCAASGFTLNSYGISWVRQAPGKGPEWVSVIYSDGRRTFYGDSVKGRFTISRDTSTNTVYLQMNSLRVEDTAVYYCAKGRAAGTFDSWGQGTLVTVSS
VL: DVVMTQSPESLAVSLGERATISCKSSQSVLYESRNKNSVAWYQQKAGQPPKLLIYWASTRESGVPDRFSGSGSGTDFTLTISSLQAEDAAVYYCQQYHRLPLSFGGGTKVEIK

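The starting antibody came from a phage panning campaign against this peptide. These sequences belong to a second round, designed from the earlier measurements on random variants of the parent. Group labels follow the data file (Ctrl: baseline library sampled from a position-specific scoring matrix, with some repeated check sequences; Rand: our label for a block that the file lists under HC and that is probably the random mutants of the ten best first-round binders; GP: Gaussian process model; GPLM: also part of the Gaussian process libraries; HC: hill climbing; Gen: genetic algorithm; Gibbs: Gibbs sampling; a sequence that several methods proposed may carry one label only). Affinity was read by AlphaSeq, a pooled yeast mating assay with surface-displayed partners. Binding brings cells together so that they mate, and sequencing counts the barcode pairs among the diploids. Each replicate has its own calibration line, from reference interactions of the BCL2 family. The assay was run in six technical replicates.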

Each variant's VH is given in full.
This list holds designs with at most six substitutions.
Each Kd is an estimate from the mating assay, the geometric mean of the replicates in which the pair was seen; lower is stronger.
A pair that was not seen in any replicate is written "no signal"; this usually means weak binding, but a binder can also be missed.
The authors' rule: three or more of the six replicates give a measured affinity, fewer mean a poor binder.
Three control strains display no target. For all heavy chain designs, 1% of the pairings with them gave a signal, with a median of 120 nM and one signal in twenty below 7.0 nM, so weak values seen in few replicates may be background.
The parent sequence was in this pool as ten entries: three were never detected, three once, and four in most replicates, with averages from 2.2 nM to 240 nM.
Values of this round are not directly comparable with the first-round values of the same sequences.

The variant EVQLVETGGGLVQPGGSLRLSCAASGFNLESYGISWVRQAPGKGPEWVSVIYSDGRRTFYGDSVKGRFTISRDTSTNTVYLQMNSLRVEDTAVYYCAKGRAAGTFSSWGQGTLVTVSS [Ctrl] showed no signal (0 of 6 replicates).
The variant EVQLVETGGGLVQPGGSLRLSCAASGFTLESYGISWVRQAPGKGPEWVSVIYSDGRRTFYQDSVKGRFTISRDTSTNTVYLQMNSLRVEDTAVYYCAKGRAAGTFDKWGQGTLVTVSS [GP_Gibbs] showed no signal (0 of 6 replicates).
The variant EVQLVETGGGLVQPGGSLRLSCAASGFELNSYGISWVRQAPGKGPEWVSVIYSDGRRTFYADSVKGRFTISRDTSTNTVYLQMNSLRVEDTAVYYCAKGRQAGTFDSWGQGTLVTVSS [GPLM_Gibbs] showed 4.3 nM (6 of 6 replicates).
The variant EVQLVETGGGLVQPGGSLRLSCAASGFSLNSYGISWVRQAPGKGPEWVSVIYSDGRRTFYGDAVKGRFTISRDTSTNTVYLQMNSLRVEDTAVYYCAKRRTAGTFDSWGQGTLVTVSS [Ctrl] showed no signal (0 of 6 replicates).
The variant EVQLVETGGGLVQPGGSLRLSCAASGFTLNQYGISWVRQAPGKGPEWVSVIYSDGRRTFYSDSVKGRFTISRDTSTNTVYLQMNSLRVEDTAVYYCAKGQVAGTFDSWGQGTLVTVSS [GP_HC] showed 690 pM (6 of 6 replicates).
The variant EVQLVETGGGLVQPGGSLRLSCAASGFDQNSYGISWVRQAPGKGPEWVSVIYSDGRRTFYPDSVKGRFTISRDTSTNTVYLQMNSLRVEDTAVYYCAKGRAAGWFNSWGQGTLVTVSS [Rand] showed no signal (0 of 6 replicates).
The variant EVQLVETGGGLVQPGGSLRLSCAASGFTLESYGISWVRQAPGKGPEWVSVIYSDGRRTFYIDSVKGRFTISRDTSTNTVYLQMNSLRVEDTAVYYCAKGKAAGTFDSWGQGTLVTVSS [GP_Gen] showed 6.5 nM (1 of 6 replicates).
The variant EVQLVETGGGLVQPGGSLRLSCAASGFTLNSYGISWVRQAPGKGPEWVSVIYSDGLRTFYGDSVKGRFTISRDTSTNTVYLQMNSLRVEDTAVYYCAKGRIAGTFDSWGQGTLVTVSS [Ctrl] showed 57 nM (6 of 6 replicates).
The variant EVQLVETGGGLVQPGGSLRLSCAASGFTLNEYGISWVRQAPGKGPEWVSVIYSDGRRTFYSDSVKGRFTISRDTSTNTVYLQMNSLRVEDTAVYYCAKGHAAGTFDSWGQGTLVTVSS [GP_HC] showed 8.7 nM (6 of 6 replicates).
The variant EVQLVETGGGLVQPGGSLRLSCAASGFSLNSYGISWVRQAPGKGPEWVSVIYSDGRRTFYVDSVKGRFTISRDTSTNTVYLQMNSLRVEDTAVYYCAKGKLAGTFDTWGQGTLVTVSS [GP_Gibbs] showed 9.4 nM (2 of 6 replicates).
The variant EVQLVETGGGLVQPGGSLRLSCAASGFTLNSYGISWVRQAPGKGPEWVSVIYADGRRTFYGDSVKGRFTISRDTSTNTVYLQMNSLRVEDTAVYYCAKGVAAGTNKSWGQGTLVTVSS [Rand] showed no signal (0 of 6 replicates).
The variant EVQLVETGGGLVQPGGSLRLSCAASGFSLNQYGISWVRQAPGKGPEWVSVIYSDGRRTAYGDSVKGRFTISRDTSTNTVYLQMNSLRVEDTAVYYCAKGRAAGTFDSWGQGTLVTVSS [GP_Gen] showed 1.5 nM (6 of 6 replicates).
The variant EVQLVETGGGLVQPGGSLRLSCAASGFNLNSYGISWVRQAPGKGPEWVSVIYSDGRRTFYGDQVKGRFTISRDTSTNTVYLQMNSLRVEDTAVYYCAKGREAGTFDNWGQGTLVTVSS [GP_Gibbs] showed 17 nM (6 of 6 replicates).
The variant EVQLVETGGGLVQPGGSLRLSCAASGFELNMYGISWVRQAPGKGPEWVSVIYSDGRRTFYHDSVKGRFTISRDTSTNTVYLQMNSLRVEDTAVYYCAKGRTAGTFDSWGQGTLVTVSS [GP_Gen] showed 2.5 nM (6 of 6 replicates).
The variant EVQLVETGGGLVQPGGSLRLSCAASGFTLNSYGISWVRQAPGKGPEWVSVIYSDGRRTFYGDSVKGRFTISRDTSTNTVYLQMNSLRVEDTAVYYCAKGRAAKTFDSWGQGTLVTVSS [Ctrl] showed no signal (0 of 6 replicates).
The variant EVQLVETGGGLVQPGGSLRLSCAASGFTLNSYGISWVRQAPGKGPEWVSVIYSDGMRTFYSDSVKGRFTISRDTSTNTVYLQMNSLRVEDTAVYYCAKGKAAGTFDTWGQGTLVTVSS [GP_Gen] showed 1.7 nM (6 of 6 replicates).
The variant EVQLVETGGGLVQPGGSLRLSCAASGFNLNSYGISWVRQAPGKGPEWVSVIYSDGRRTFYADSVKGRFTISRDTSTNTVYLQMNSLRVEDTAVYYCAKGKTAGTFDSWGQGTLVTVSS [GP_Gen] showed 1.3 nM (6 of 6 replicates).
The variant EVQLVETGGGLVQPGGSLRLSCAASGFSLNSYGISWVRQAPGKGPEWVSVIYSDGRRTFYIDSVKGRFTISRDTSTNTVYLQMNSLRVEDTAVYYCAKGNAAGTFDTWGQGTLVTVSS [GPLM_Gibbs] showed 4.6 nM (6 of 6 replicates).
The variant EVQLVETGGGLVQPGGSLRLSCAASGFTLMSYGISWVRQAPGKGPEWVSVIYSDGRRTFYRDQVKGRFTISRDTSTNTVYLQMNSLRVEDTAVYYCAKGRAAGTFDSWGQGTLVTVSS [Ctrl] showed no signal (0 of 6 replicates).
The variant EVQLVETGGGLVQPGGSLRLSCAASGFTLNEYGISWVRQAPGKGPEWVSVIYSDGRRTFYGDSVKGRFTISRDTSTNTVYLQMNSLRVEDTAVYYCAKGRAAGTFRVWGQGTLVTVSS [GPLM_HC] showed 360 nM (1 of 6 replicates).
The variant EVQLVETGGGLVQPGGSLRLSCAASGFDLNSYGISWVRQAPGKGPEWVSVIYSDGRRTFYGDSVKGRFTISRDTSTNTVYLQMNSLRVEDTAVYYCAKGRAAGCFRSWGQGTLVTVSS [GP_HC] showed no signal (0 of 6 replicates).
The variant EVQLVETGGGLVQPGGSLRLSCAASGFVLNSYGISWVRQAPGKGPEWVSVIYADGRRTFYGDSVKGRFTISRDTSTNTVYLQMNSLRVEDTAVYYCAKGEAAGTFDSWGQGTLVTVSS [GPLM_Gibbs] showed 72 nM (4 of 6 replicates).
The variant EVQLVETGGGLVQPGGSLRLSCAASGETLNSYGISWVRQAPGKGPEWVSVIYSDGRRTFYGDSVKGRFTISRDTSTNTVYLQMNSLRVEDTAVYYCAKGRNAGTFTSWGQGTLVTVSS [Ctrl] showed 4.4 nM (1 of 6 replicates).
The variant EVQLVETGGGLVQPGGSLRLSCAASGFDLKSYGISWVRQAPGKGPEWVSVIYSDGRRTFYGDNVKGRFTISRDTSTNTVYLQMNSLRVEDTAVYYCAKGRTAGTFDSWGQGTLVTVSS [GP_Gibbs] showed 180 pM (6 of 6 replicates).

Picked from the list: the 3 lowest averages where every replicate gave a value.

{"VH": "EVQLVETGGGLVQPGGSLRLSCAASGFDLKSYGISWVRQAPGKGPEWVSVIYSDGRRTFYGDNVKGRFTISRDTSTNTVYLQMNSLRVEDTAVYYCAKGRTAGTFDSWGQGTLVTVSS", "group": "GP_Gibbs", "Kd (apparent)": "180 pM", "replicates with signal": "6/6"}
{"VH": "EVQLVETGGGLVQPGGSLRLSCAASGFTLNQYGISWVRQAPGKGPEWVSVIYSDGRRTFYSDSVKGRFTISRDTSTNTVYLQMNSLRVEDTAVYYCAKGQVAGTFDSWGQGTLVTVSS", "group": "GP_HC", "Kd (apparent)": "690 pM", "replicates with signal": "6/6"}
{"VH": "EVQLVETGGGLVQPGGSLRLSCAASGFNLNSYGISWVRQAPGKGPEWVSVIYSDGRRTFYADSVKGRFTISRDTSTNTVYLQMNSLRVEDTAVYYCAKGKTAGTFDSWGQGTLVTVSS", "group": "GP_Gen", "Kd (apparent)": "1.3 nM", "replicates with signal": "6/6"}

Reference: Li et al. 2023, doi:10.1038/s41467-023-39022-2. File: FLAb, binding data.